Reference: paper PMC10067937

Molecular target: human PIEZO1-mTurquoise2 (human) (UniProt Q92508)
Test: FRET or BRET; FRET by FLIM of the donor PIEZO1-mTurquoise2 with an acceptor-tagged partner coexpressed in COS-7 cells, fixed with 4% paraformaldehyde; two-photon excitation at 800 nm; peak lifetime of whole cells, cell-cell junctions or non-junctional regions; static dishes, or slides preconditioned 24 h at 10 dyn.cm^-2, 30 min static, then 10 min shear or static

- fluorescence lifetime of the donor (PIEZO1-mTurquoise2) with the acceptor coexpressed: 3.5 ns
Substance: human PECAM1-SYFP2 (wild type), in COS-7 cells (from UniProt P16284 28-738) (natural protein; other documents disagree on this pair)
